Source: paper PMC11237553, “De novo synthetic antimicrobial peptide design with a recurrent neural network” (Protein Science : A Publication of the Protein Society, 2024)

What was measured:
[1] = system: Escherichia coli ATCC 25922; test: Broth microdilution antimicrobial susceptibility testing (MIC/MBC); format: cell-based; settings: one maximum and one minimum data point dropped; for MIC, E. coli ATCC 25922: broth microdilution (CLSI, adapted for cationic AMPs), Mueller‐Hinton Broth, 5 ± 3 × 10^5 CFU/mL, 20–24 h at 37°C, test range 128 down to 0.25 μg/mL, lowest effective concentration range in three independent experiments in duplicate; for MBC, E. coli ATCC 25922: concentration killing 99.9% of the inoculum, plated from MIC wells, 24 h at 37°C, range in three independent experiments in duplicate
Protocol: (§1) Bacteria from frozen stocks were streaked onto non‐selective Columbia blood agar with 5% sheep blood (Oxoid) and incubated for 18–24 h at 37°C. The following day, 2–4 colonies were streaked onto a new agar plate and incubated for 18–24 h at 37°C to ensure uniform colony health prior to the assay. A standardized bacterial inoculum was prepared by suspending isolated colonies in Mueller‐Hinton Broth (MHB; Sigma‐Aldrich, St. Louis, MO, USA). The suspension was adjusted to an optical density of 0.08–0.1 at 600 nm, equivalent to a 0.5 McFarland standard of approximately 1–2 × 10^8 CFU/mL (CFU: colony forming units). The inoculum was then diluted 1:250 to achieve a final concentration of 5 ± 3 × 10^5 CFU/mL. The target bacterial density was confirmed by examining the total viability counts from the final inoculum.
(§2) Candidate AMPs were purchased from and synthesized by GenScript (Piscataway, NJ, USA). These were received in lyophilized format and stored at −20°C, and were suspended in sterile ultrapure water prior to testing.

[2] = system: Staphylococcus aureus ATCC 29213; test: as above; format: cell-based; settings: one maximum and one minimum data point dropped; for MIC, S. aureus ATCC 29213: broth microdilution (CLSI, adapted for cationic AMPs), Mueller‐Hinton Broth, 5 ± 3 × 10^5 CFU/mL, 20–24 h at 37°C, test range 128 down to 0.25 μg/mL, lowest effective concentration range in three independent experiments in duplicate; for MBC, S. aureus ATCC 29213: concentration killing 99.9% of the inoculum, plated from MIC wells, 24 h at 37°C, range in three independent experiments in duplicate
Protocol: as §1, §2

[3] = system: Porcine red blood cells (RBCs); test: Hemolysis assay; format: cell-based, pig; settings: 1% porcine RBC in RPMI, 37°C for 30–45 min, absorbance 415 nm, test range 128 down to 1 μg/mL, Triton‐X100 = 100%; range in three independent experiments in duplicate, one maximum and one minimum data point dropped

Row | Substance | MIC, E. coli ATCC 25922 [1] | MBC, E. coli ATCC 25922 [1] | MIC, S. aureus ATCC 29213 [2] | MBC, S. aureus ATCC 29213 [2] | HC50 (concentration that lyses 50% of the RBCs), porcine RBCs [3]
1 | ALPSIIKGLLKKL [DeNo1047] | ≥ 128 µg/mL | ≥ 128 µg/mL | > 128 µg/mL | > 128 µg/mL | > 128 µg/mL
2 | CLPSILC [DeNo1037] | > 128 µg/mL | > 128 µg/mL | > 128 µg/mL | > 128 µg/mL | > 128 µg/mL
3 | CLPSILCKITKKC [DeNo1044] | ≥ 128 µg/mL | ≥ 128 µg/mL | > 128 µg/mL | > 128 µg/mL | > 128 µg/mL
4 | CLPSLLPSLFKKL [DeNo1028] | > 128 µg/mL | > 128 µg/mL | > 128 µg/mL | > 128 µg/mL | > 128 µg/mL
5 | DLLKTLKKIAKKLLKTLLKKLLKKLLKKL [DeNo1023] | 128 µg/mL | 128 µg/mL | > 128 µg/mL | > 128 µg/mL | > 128 µg/mL
6 | DLLSCLKKKGKCVLKNL [DeNo1025] | > 128 µg/mL | > 128 µg/mL | > 128 µg/mL | > 128 µg/mL | > 128 µg/mL
7 | FLPKIAGKAAKKLPKIFCKITKKC [DeNo1019] | – | – | > 128 µg/mL | > 128 µg/mL | > 128 µg/mL
8 | FLPKIAGKIAGKL [DeNo1050] | > 128 µg/mL | > 128 µg/mL | > 128 µg/mL | > 128 µg/mL | > 128 µg/mL
9 | FLPKIAGKIAKKL [DeNo1058] | > 128 µg/mL | > 128 µg/mL | > 128 µg/mL | > 128 µg/mL | > 128 µg/mL
10 | FLPKIFKKIAKKI [DeNo1055] | ≥ 128 µg/mL | ≥ 128 µg/mL | > 128 µg/mL | > 128 µg/mL | > 128 µg/mL
11 | FLPKIFKKIAKKL [DeNo1045] | – | – | > 128 µg/mL | > 128 µg/mL | > 128 µg/mL
12 | GLLSLLKKLLKKL [DeNo1056] | – | – | > 128 µg/mL | > 128 µg/mL | > 128 µg/mL
13 | KIFGKILKKLLKKLLKKLLKKL [DeNo1013] | – | – | > 128 µg/mL | > 128 µg/mL | –
14 | KLFGKILGKIAKKILGKILGALLSKLLSAL [DeNo1024] | ≥ 128 µg/mL | ≥ 128 µg/mL | > 128 µg/mL | > 128 µg/mL | > 128 µg/mL
15 | KLPSIIKAAAKALPKLF [DeNo1034] | – | – | > 128 µg/mL | > 128 µg/mL | > 128 µg/mL
16 | LLPSLLKGLAKKL [DeNo1053] | > 128 µg/mL | > 128 µg/mL | > 128 µg/mL | > 128 µg/mL | > 128 µg/mL
17 | LLPSLLKGLLKKL [DeNo1048] | 128 µg/mL | 128 µg/mL | > 128 µg/mL | > 128 µg/mL | > 128 µg/mL
18 | MLPKIAGAIAKLL [DeNo1042] | > 128 µg/mL | > 128 µg/mL | > 128 µg/mL | > 128 µg/mL | > 128 µg/mL
19 | MLPKIAGKIAKKL [DeNo1041] | > 128 µg/mL | > 128 µg/mL | > 128 µg/mL | > 128 µg/mL | > 128 µg/mL
20 | MLPSIAGAAAKGLPKLFCKITKKC [DeNo1038] | – | – | > 128 µg/mL | > 128 µg/mL | > 128 µg/mL
21 | NLLDTLKNVAKNVAKNVLDTLKCKITCKC [DeNo1015] | 128 µg/mL | 128 µg/mL | > 128 µg/mL | > 128 µg/mL | > 128 µg/mL
22 | PLPPIIPGLASGLLSGLC [DeNo1033] | > 128 µg/mL | > 128 µg/mL | > 128 µg/mL | > 128 µg/mL | > 128 µg/mL
23 | QLPKIAGKIAKKL [DeNo1054] | > 128 µg/mL | > 128 µg/mL | > 128 µg/mL | > 128 µg/mL | > 128 µg/mL
24 | RLPSIIPGIAGKLGGLLGGLLKGL [DeNo1027] | – | – | > 128 µg/mL | > 128 µg/mL | > 128 µg/mL
25 | TLPDVAKNVAKNVAKTVLDTLKCKITGKC [DeNo1020] | – | – | > 128 µg/mL | > 128 µg/mL | > 128 µg/mL
